Patent US20030037354A1, “Animal model with disrupted Fgf14 gene” (priority 2001, published 2003)

Legend:
[1] = test system: wildtype and Fgf14^N-βGal/N-βGal mice; assay: Locomotor activity response to stimulant drugs and dopamine receptor agonists; assay type: in vivo, mouse; conditions: 0.5 mg/kg
Description: Locomotor activity. For the locomotor activity experiments, all mice were acclimated to the activity cages (28 cm long×17 cm wide×12.5 cm high) for one hour on two consecutive days. […] Mice were tested every other day and the order of drug treatment was counterbalanced across days within genotype groups. Locomotor activity was recorded every five minutes by two beams of red light placed at 10 and 19 cm along the length of the activity cage.
Statistical Analyses. The behavioral data were analyzed using analysis of variance (ANOVA) models typically containing one between-subjects variable (Genotype) and one within-subjects variable (e.g., Trials or Test Sessions). Subsequent one-way ANOVAs were used to evaluate main effects. Data from the experiments concerning drug effects on locomotor activity were analyzed by using a […] analysis of variance (ANOVA) with one between-subjects variable (Drug) being added to the above model. […] Alpha was set at p<0.05 for all analyses.

mice = conditions: mouse, in vivo; cited from earlier work

**Q.** Which “decrease in locomotor activity” value [1] does the source give for `CCCN1CCC[C@@H]2Cc3n[nH]cc3C[C@H]21` [quinpirole] here?
**A.** 4.5 fold

**Q.** And the “effect on locomotor activity” value (mice)?
**A.** dose dependent decrease
